Target: O-acyltransferase (Oryctolagus cuniculus, UniProt G1SFD9)
Assay: In vitro inhibition of acyl coenzyme A:cholesterol acyltransferase, in intestinal microsomes isolated from cholesterol-fed rabbits
Set-up: species or system Intestine
Outline: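 Rabbit intestinal mucosa scraped, washed, homogenized in phosphate/KCl/EDTA/sucrose buffer; microsomes pelleted at 100000g and stored at -70 °C. Microsomes (0.3 mg protein) with BSA (0.5 mg) and inhibitor in DMSO/Tween-20 preincubated 5 min at 37 °C. [1-14C]oleoyl-CoA (10 nmol, 0.05 μCi) then added for 5 min. Cholesteryl oleate extracted, separated by TLC and counted by scintillation. Four dilutions per compound, in triplicate.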

Sequences of proteins named here, by UniProt entry; tags and fusion partners are left off. Residues count along the entry.
UniProt G1SFD9, 1-524: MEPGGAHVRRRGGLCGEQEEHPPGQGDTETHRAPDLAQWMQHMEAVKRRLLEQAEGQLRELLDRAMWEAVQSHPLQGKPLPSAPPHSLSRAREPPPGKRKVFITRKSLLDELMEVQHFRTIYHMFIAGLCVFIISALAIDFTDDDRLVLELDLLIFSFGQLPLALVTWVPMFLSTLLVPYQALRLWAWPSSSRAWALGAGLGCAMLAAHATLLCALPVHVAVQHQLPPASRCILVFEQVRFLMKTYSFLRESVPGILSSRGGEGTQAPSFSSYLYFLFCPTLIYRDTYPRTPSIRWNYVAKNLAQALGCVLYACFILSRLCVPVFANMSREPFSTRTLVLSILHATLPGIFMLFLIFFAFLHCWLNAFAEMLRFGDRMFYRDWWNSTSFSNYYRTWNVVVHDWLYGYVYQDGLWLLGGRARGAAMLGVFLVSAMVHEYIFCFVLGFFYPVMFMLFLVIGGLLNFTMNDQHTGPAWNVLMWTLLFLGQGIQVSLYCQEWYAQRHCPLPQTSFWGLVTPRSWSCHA

| SMILES | IC50 [µM] |
| --- | --- |
| CCCCCCCCCCCCC(C)C(=O)Nc1c(OC)cc(OC)cc1OC (configuration not stated) | 0.13 |
| CCCCCCCC/C=C\CCCCCCCC(=O)Nc1ccccc1 [OLEIC ACID ANILIDE] | 26 |

Source: ChEMBL document CHEMBL1125457, “Inhibitors of acyl-CoA:cholesterol acyltransferase. 1. Identification and structure-activity relationships of a novel series of fatty acid anilide hypocholesterolemic agents” (J Med Chem, 1992)
